{"sequences": {"note": "Amino acid sequences for entries named in this document (tags omitted). Residues count along the entry.", "UniProt P11362, 22-822 limits assumed": "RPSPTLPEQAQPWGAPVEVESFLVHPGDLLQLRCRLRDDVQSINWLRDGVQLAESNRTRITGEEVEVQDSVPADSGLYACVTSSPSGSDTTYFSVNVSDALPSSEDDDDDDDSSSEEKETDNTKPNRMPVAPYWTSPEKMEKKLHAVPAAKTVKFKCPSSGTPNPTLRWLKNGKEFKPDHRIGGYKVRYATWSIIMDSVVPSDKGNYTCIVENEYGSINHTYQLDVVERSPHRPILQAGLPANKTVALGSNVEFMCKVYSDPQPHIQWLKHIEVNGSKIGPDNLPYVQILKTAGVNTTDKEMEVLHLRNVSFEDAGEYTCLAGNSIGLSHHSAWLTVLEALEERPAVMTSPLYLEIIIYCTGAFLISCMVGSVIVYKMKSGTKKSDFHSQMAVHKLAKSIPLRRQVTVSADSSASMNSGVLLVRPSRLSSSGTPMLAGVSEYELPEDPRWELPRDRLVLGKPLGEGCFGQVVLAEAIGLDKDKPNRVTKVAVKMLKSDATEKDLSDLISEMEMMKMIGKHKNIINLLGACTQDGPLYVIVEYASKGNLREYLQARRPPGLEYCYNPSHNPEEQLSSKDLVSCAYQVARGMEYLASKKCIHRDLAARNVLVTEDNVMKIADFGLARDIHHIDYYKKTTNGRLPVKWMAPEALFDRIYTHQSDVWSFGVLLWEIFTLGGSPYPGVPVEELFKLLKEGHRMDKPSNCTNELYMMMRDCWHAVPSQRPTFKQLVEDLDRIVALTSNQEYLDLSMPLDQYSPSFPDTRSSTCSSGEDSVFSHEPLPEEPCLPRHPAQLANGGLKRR", "UniProt P22455, 22-802 limits assumed": "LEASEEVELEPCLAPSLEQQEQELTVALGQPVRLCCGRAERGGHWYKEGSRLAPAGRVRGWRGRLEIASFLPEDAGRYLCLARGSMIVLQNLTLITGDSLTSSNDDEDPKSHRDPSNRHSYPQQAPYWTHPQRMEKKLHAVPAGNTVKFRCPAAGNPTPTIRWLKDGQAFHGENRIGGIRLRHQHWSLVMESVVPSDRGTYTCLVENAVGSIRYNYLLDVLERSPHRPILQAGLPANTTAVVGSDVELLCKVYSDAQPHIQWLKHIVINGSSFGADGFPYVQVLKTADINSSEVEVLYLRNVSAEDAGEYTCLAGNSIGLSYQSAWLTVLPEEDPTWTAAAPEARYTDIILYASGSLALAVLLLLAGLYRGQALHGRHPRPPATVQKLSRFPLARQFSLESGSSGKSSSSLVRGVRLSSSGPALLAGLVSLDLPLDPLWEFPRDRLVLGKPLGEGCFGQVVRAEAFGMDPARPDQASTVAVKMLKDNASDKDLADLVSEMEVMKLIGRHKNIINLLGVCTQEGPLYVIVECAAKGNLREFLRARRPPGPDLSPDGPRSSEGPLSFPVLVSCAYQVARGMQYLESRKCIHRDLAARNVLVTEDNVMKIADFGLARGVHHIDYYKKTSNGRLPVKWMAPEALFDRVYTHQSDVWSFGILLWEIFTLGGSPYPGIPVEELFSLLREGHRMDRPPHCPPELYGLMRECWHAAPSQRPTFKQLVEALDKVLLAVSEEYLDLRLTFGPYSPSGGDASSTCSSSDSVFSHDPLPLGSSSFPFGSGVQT"}, "source": "patent US11008292B2", "about": "“FGFR4 inhibitor and preparation method and use thereof” (GUANGDONG ZHONGSHENG PHARMACEUTICAL CO., LTD, priority 2016, dated 2021)", "key": {"[1]": {"biological_target": "FGFR1 protein kinase (Homo sapiens, UniProt P11362)", "test": "In vitro enzyme activity test, Z′-LYTE Assay, FGFR1 enzymatic reaction", "details": "read-out: FGFR1 IC50; Z′-LYTE detection; 25 μM ATP", "procedure": "(§1) The inhibitory effects of the compounds on FGFR4 kinases were assessed by detecting the enzymatic activities through Z′-LYTE® Assay, with the IC50 value of the compound as the indicator. This activity test was performed by Life technology.\n(§2) The test compounds were diluted in a concentration gradient of 3-times, the final concentrations were 10 concentrations ranging from 10 μM to 0.5 nM, with double hole for each concentration; the content of DMSO in the detection reaction was 1%.\nFGFR1 Enzymatic Reaction:\n1 nM FGFR1 protein kinase, 2 μM Tyr4 peptide, 25 μM ATP, 50 mM HEPES (pH 7.5), 10 mM MgCl2, 1 mM EGTA, 0.01% BRIJ-35, 2 mM MnCl2, 1 mM DTT. The detection plate was Black Proxiplate 384-Plus plate (PerkinElmer), reaction conducted at room temperature for 60 minutes, and the reaction system was 10μμL.\n(§3) To the kinase reaction solution was added 5 μL Development reagent B (1:64) to stop the reaction and incubated at 23° C. for 60 minutes, reading the plate with Envision instrument.\n(§4) Data was transformed into the phosphorylation rate and the inhibitory rate by curve fitting with Model 205 in XLFIT (iDBS) to obtain the IC50 data of the compounds. It was set as 0% if the bottom of the curve was not in the range of −20% to 20%; otherwise it was set as 100% if the top of the curve was not in the range of 70% to 130%."}, "[2]": {"biological_target": "FGFR4 kinases (Homo sapiens, UniProt P22455)", "test": "In vitro enzyme activity test, Z′-LYTE Assay, FGFR4 enzymatic reaction", "details": "read-out: FGFR4 IC50; Z′-LYTE detection; 150 μM ATP", "procedure": "as §1, §2\nFGFR4 Enzymatic Reaction:\n[…] The detection plate was Bar-coded Corning, low volume NBS, black 384-well plate, reaction conducted at room temperature for 60 minutes, and the reaction system was 10μμL.\nas §3, §4"}}, "data": [{"smiles": "C=CC(=O)Nc1cccc(C)c1Nc1ncc(/C(F)=C/c2c(Cl)c(OC)cc(OC)c2Cl)c(C)n1", "values": [{"measurement": "IC50", "setting": "[1]", "result": "> 10000", "unit": "nM"}, {"measurement": "IC50", "setting": "[2]", "result": 993, "unit": "nM"}]}]}
